Reference: patent US9365853B2, “Matriptase inhibitors and uses thereof against orthomyxoviridae infections” (priority 2011, dated 2016)

Amino acid sequences for entries named in this document (tags omitted). Residues count along the entry.
UniProt Q9Y5Y6, 596-855 limits assumed: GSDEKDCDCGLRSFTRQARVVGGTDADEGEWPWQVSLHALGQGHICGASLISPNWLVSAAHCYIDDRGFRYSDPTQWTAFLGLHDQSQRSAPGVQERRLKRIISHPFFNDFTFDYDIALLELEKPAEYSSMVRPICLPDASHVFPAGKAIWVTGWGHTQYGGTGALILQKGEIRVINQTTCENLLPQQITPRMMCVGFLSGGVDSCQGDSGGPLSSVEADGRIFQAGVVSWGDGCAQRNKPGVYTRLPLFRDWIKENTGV

Biological target: Recombinant purified human matriptase (amino acids 596-855) (Homo sapiens (Human), UniProt Q9Y5Y6)
Assay: biochemical

## C[C@H](NC(=O)[C@H](CCC(N)=O)NC(=O)[C@@H](N)CCCNC(=N)N)C(=O)N[C@@H](CCCNC(=N)N)C(=O)c1nc2ccccc2s1 [Compound 1, RQAR-ketobenzothiazole]
  IC50: ~29 nM
